ChEMBL document CHEMBL4765381, “Neuropeptide FF and Its Receptors: Therapeutic Applications and Ligand Development” (J Med Chem, 2020)

By UniProt entry, the sequences of proteins in these tests, tags left out. Where a name states a change or a piece, a line headed by the entry shows the natural chain unless it says otherwise.
UniProt Q9Y5X5: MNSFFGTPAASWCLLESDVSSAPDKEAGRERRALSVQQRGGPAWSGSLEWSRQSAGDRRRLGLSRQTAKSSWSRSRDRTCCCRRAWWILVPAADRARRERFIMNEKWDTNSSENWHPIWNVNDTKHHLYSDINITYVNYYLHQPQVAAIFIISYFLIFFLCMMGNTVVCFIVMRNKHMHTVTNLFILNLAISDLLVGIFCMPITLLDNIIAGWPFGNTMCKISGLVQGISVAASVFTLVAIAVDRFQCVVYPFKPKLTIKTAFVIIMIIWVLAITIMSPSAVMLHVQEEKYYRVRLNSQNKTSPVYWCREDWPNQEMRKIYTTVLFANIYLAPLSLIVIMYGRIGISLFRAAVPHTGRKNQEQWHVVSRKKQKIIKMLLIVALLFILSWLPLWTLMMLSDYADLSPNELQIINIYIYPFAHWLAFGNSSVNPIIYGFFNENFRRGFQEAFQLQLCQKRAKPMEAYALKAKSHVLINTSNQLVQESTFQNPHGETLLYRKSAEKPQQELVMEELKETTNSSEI
UniProt Q9GZQ6: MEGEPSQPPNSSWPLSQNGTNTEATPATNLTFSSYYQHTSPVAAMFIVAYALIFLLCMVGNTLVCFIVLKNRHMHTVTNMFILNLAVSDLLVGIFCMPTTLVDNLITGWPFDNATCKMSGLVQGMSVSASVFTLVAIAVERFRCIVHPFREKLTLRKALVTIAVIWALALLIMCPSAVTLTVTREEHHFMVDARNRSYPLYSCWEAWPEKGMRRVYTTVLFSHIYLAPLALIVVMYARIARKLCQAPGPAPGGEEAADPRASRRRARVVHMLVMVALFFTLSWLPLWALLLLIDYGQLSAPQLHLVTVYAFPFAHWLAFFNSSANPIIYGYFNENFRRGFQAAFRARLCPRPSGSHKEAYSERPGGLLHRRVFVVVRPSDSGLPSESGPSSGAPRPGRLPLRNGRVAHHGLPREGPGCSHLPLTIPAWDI

Legend:
[1] = biological target: T1, Neuropeptide FF receptor 2 (Homo sapiens, UniProt Q9Y5X5); assay: Agonist activity at NPFFR2 (unknown origin) expressed in HEK293T cells harboring EP2 incubated for 15 mins by cAMP assay relative to control; assay type: functional, cell-based
[2] = biological target: T1, Neuropeptide FF receptor 2; assay: Agonist activity at NPFFR2 (unknown origin) expressed in mouse NIH3T3 cells by receptor selection and amplification technology assay relative to control; assay type: cell-based; conditions: filed as agonist
[3] = biological target: T2, Neuropeptide FF receptor 1 (Homo sapiens, UniProt Q9GZQ6); assay: Displacement of [125I]YVP from human NPFFR1 expressed in CHO cells by gamma-counter method; assay type: cell-based
[4] = biological target: T2, Neuropeptide FF receptor 1; assay: Displacement of [125I]YVP from human NPFFR1 expressed in HEK293 cells by radioligand binding assay; assay type: cell-based
[5] = biological target: T1, Neuropeptide FF receptor 2; assay: Agonist activity at NPFFR2 (unknown origin) expressed in mouse NIH3T3 cells by receptor selection and amplification technology assay; assay type: cell-based
[6] = biological target: T1, Neuropeptide FF receptor 2; assay: Agonist activity at NPFFR2 (unknown origin) expressed in HEK293T cells harboring EP2 incubated for 15 mins by cAMP assay; assay type: functional, cell-based

Efficacy [1]: 35%
Efficacy [2]: 52.2%
SMILES: N=C(N)N/N=C/c1ccc(Cl)c(Cl)c1

Ki [3]: 0.59 nM
Ki [4]: 1.3 nM
SMILES: CC(C)C[C@H](NC(=O)[C@H](CC(N)=O)NC(=O)[C@@H]1CCCN1C(=O)[C@@H](N)C(C)C)C(=O)N1CCC[C@H]1C(=O)N[C@@H](CCC(N)=O)C(=O)N[C@@H](CCCNC(=N)N)C(=O)N[C@@H](Cc1ccccc1)C(N)=O

EC50 [5]: 398 nM
EC50 [6]: 3980 nM
SMILES: N=C(N)N/N=C/c1ccc(Cl)c(C(F)(F)F)c1

Efficacy ([1]; filed as agonist): 78%
Efficacy [2]: 87.6%
SMILES: N=C(N)N/N=C/c1ccc(Br)c(Br)c1

One block for each compound: values may come before it.
